{"sequences": {"note": "Chains of the proteins cited; added tags and fusions are not shown. Residues count along the entry.", "UniProt P22303, 32-617 isoform 2 limits assumed": "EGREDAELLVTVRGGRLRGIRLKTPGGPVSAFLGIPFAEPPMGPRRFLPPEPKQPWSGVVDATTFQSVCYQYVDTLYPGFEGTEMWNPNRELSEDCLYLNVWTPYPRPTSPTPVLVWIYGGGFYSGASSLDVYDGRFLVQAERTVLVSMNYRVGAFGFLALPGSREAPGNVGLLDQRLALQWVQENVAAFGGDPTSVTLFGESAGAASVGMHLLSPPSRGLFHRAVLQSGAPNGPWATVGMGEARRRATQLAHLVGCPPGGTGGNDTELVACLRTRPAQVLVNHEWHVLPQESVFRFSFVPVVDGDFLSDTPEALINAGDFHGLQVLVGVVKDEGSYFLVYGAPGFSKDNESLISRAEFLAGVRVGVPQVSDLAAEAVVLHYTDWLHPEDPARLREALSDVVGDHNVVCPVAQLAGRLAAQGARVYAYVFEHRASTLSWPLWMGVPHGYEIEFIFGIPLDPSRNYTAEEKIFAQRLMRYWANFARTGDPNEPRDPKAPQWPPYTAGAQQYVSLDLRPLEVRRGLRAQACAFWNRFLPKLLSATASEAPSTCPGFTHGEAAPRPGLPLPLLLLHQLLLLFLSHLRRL"}, "source": "patent US5180831A", "about": "(priority 1990, dated 1993)", "key": {"[1]": {"target": "human erythrocyte AChE (Homo sapiens, UniProt P22303)", "experiment": "Irreversible inhibition of human erythrocyte AChE", "assay_type": "biochemical", "conditions": "human AChE in vitro"}, "[2]": {"tested_on": "AChE", "experiment": "Irreversible inactivation of AChE, enzyme source not specified"}}}
{"smiles": "CN(C)C(=O)Oc1ccc[n+](C)c1C=NOCc1ccccc1", "values": [{"measurement": "anti AChE activity compared with pyridostigmine or physostigmine", "setting": "[1]", "value": "greater anti AChE activity"}]}
{"smiles": "COc1ccc(CON=Cc2c(OC(=O)N(C)C)ccc[n+]2C)cc1", "values": [{"measurement": "half-life for inactivation", "setting": "[2]", "value": "about 9 sec"}, {"measurement": "anti AChE activity compared with pyridostigmine or physostigmine", "setting": "[1]", "value": "greater anti AChE activity"}]}
